# Paper PMC5755735, “Discovery of indolylpiperazinylpyrimidines with dual-target profiles at adenosine A2A and dopamine D2 receptors for Parkinson's disease treatment” (PLoS ONE, 2018)
# Sequences of proteins named here, by UniProt entry; tags and fusion partners are left off.
# UniProt P14416, whole entry: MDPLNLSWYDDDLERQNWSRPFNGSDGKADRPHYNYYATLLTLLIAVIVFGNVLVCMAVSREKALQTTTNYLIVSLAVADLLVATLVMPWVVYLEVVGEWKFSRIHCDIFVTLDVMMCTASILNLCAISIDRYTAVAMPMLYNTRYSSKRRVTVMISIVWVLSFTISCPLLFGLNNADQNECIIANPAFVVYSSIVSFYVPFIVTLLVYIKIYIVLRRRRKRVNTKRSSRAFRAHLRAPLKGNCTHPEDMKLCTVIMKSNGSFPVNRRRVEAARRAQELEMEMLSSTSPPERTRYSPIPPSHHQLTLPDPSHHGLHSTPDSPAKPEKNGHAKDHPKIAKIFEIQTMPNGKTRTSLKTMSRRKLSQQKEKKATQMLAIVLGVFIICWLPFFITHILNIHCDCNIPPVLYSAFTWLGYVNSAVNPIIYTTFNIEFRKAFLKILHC
# Structures can show the parent of a compound that is named as a salt. Where two headings read alike, the source gives them in different places.
# Molecular target: human dopamine D2 receptor (Homo sapiens, UniProt P14416)
# Test: D2R-proteopolymersomes-based fluorescence competition assay with BODIPY-NAPS
# Type: binding
# Parameters: made in house; host or cells: in vitro (cell-free) synthesis, inserted into polymersomes
# Method: In addition to the human A2A receptor binding affinity assay, the newly synthesized IPP derivatives were further examined for their binding affinity toward human dopamine D2 receptor. […] The mixture was then incubated with solutions containing eight different concentrations (ranging from 3 nM to 0.3 mM) of compounds 5 and 6, and the measured fluorescence intensity against ligand concentration was plotted accordingly (Fig 5A and 5B).
# Polymersomes (ABA triblock-copolymer and BD21 diblock-copolymer: ABA stands for PMOXA-PDMS-PMOXA; A = PMOXA = poly(2-methyloxazoline); B = PDMS = poly(dimethylsiloxane) and BD21 stands for [PBd]22-b-[PEO]13; PBd/PEO = polybutadiene/polyethylene oxide) preparation, cloning and in vitro synthesis of dopamine D2 receptor, and purification of proteopolymersomes were performed following previously described procedures. For the replacement assay, ABA-polymersomes were covalently attached to an amino-functionalized glass slide, which was then treated with isopropanol, ultrapure water and a N2-stream. […] Program ImageJ was used for determination of fluorescence intensities.
smiles,measurement,setting,value
"CCCN(CCc1ccccc1)C1CCc2c(O)cccc2C1 (racemic) [(±)-PPHT.HCl, (±)-2-(N-phenethyl-N-propyl)amino-5-hydroxytetralin hydrochloride, reference compound]",EC50,"+ D2-ACM (D2R-proteopolymersomes), read-out: EC50 (D2 receptor, displacement of BODIPY-NAPS)",200 nM
same,EC50,"+ heated D2-ACM: D2R-proteopolymersomes denatured with heat, read-out: EC50 (heated D2-ACM, non-binding control)",300 nM
